Test results from patent US10421743B2, “Tetrahydroisoquinolines as PRMT5 inhibitors” (CTXT PTY LTD, priority 2016, dated 2019).
Like-named read-outs stand apart in the source and are kept apart here.

Chains of the proteins cited; added tags and fusions are not shown.
UniProt O14744, whole entry: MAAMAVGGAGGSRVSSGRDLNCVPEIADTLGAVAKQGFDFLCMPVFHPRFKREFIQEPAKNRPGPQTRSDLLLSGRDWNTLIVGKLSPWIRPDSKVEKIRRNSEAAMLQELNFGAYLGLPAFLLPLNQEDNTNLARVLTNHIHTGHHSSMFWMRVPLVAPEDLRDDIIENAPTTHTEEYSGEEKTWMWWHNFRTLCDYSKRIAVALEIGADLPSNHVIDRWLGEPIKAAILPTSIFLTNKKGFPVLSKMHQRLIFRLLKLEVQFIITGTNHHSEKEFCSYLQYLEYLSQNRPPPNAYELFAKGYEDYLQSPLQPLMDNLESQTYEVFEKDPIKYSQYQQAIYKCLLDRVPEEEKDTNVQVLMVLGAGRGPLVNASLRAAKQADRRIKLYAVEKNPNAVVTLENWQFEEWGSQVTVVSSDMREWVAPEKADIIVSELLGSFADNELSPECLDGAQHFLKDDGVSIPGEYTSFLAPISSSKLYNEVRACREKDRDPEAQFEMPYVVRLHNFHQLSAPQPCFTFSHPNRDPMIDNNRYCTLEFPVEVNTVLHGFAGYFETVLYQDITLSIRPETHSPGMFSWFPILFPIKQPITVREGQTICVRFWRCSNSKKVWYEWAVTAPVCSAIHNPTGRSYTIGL
UniProt Q9BQA1, whole entry partner: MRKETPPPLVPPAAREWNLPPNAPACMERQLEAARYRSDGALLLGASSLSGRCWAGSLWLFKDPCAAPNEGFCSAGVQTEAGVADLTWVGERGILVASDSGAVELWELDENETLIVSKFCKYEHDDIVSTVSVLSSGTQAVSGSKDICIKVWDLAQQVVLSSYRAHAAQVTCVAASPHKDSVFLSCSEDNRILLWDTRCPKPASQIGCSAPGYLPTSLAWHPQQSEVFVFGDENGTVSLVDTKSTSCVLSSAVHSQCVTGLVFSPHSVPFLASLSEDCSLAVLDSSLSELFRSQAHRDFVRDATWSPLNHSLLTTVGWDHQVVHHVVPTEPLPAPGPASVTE

How the values were obtained:
[1] = tested on: PRMT5 (symmetric dimethylation of arginine (SDMA) in MCF-7 cells); test: PRMT5 Cell Target Engagement (TE) Assay (SDMA, high content imaging); conditions: read-out: TE Assay (EC50), treated for 3 days, top compound concentration of 10000 nM
Description: PRMT5 Cell Target Engagement (TE) Assay
The PRMT5 TE assay is a biomarker assay for identifying compounds that inhibit symmetric dimethylation of arginine (SDMA) of PRMT5 substrates. This assay detects symmetrically dimethylated nuclear proteins using high content imaging technology. Detection of the expression of symmetrically dimethylated nucleo proteins is through a mixture of primary rabbit monoclonal antibodies to SDMA (CST 13222), which in turn recognized by an Alexafluor 488 dye-conjugated anti-rabbit IgG secondary antibody. The IN Cell Analyzer 2200 measures nuclear Alexafluor 488 fluorescent dye intensity that is directly related to the level of expression of symmetrically dimethylated nuclear proteins at the single cell level. Nuclear AF488 dye intensities are compared to the mean value for DMSO treated cells […] to report percent of inhibition for each compound-treated well.
In this assay, the cell potency (EC50) of each compound was determined from a ten point (1:3 serial dilution; top compound concentration of 10000 nM) titration curve using the following outlined procedure. Each well of a BD falcon collagen coated black/clear bottom 384-well plate was seeded with 4000 MCF-7 cells and allowed to attach for 5 hours. Media from cell plate was removed at 0.5 mm above the bottom of the plate and replaced with 30 μL of fresh media containing 1.2× compounds in 0.1% DMSO. […]

[2] = target: Full-length (FL)-PRMT5-MEP50 enzyme complex (Homo sapiens (Human), UniProt O14744); test: PRMT5-MEP50 Enzyme Methylation Assay (SAMDI); conditions: 0.5 nM PRMT5-MEP50, 75 nM biotinylated H4R3(Me1) peptide, 15 μM SAM, 150 minutes at 37° C.
Protocol: PRMT5-MEP50 Enzyme Methylation Assay
PRMT5/MEP50 biochemical assay is a direct measurement of the methylation activity of the enzyme complex on a short peptide substrate derived from the N-terminus of H4 histone. Methylation experiment is performed with recombinant protein. The assessment of inhibitory effect (IC50) of small molecules is measured by the effectiveness of the compounds to inhibit this reaction.
In this assay, the potency (IC50) of each compound was determined from a twenty-point (1:2 serial dilution; top compound concentration of 100000 nM) titration curve using the following outlined procedure. To each well of a white ProxiPlus 384 well-plate, 100 nL of compound (1% DMSO in final assay volume of 10 μL) was dispensed, followed by the addition of 8 μL of 1× assay buffer (50 mM Bicine pH 8.0, 1 mM DTT, 0.004% Tween20, 0.01% BSA) containing 0.5 nM of Full-length (FL)-PRMT5-MEP50 enzyme complex (recombinant proteins from baculovirus-transfected Sf21 cells: FL-PRMT5; MW=[…] and FL-MEP50; MW=38614). Plates were sealed and placed in a 37° C. humidified chamber for 30 minutes pre-incubation with compounds. Subsequently, each reaction was initiated by the addition of 2 μL 1× assay buffer containing 75 nM biotinylated H4R3(Me1) peptide, and 15 μM S-(5′-Adenosyl)-L-Methionine Chloride (SAM). […]

Compound CCc1ccc2c(c1)CN[C@H]([C@H](O)CNC(=O)c1ccc(C(=O)N3C4CCC3COC4)cc1)C2 has an EC50 [1] of 345 nM, an EC50 ([2]; read-out: Enzyme Methylation Assay (EC50—1), first EC50 of biphasic fit) of 1 nM and an EC50 ([2]; read-out: Enzyme Methylation Assay (EC50—2), second EC50 of biphasic fit) of 549 nM.
